Biological target: APC2/APC11 (Homo sapiens, UniProt Q9NYG5+Q9UJX6)

By UniProt entry, the sequences of proteins in these tests, tags left out.
UniProt Q9NYG5, whole entry: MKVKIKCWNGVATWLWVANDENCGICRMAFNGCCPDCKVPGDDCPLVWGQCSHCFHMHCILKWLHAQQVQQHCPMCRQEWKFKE
UniProt Q9UJX6, whole entry: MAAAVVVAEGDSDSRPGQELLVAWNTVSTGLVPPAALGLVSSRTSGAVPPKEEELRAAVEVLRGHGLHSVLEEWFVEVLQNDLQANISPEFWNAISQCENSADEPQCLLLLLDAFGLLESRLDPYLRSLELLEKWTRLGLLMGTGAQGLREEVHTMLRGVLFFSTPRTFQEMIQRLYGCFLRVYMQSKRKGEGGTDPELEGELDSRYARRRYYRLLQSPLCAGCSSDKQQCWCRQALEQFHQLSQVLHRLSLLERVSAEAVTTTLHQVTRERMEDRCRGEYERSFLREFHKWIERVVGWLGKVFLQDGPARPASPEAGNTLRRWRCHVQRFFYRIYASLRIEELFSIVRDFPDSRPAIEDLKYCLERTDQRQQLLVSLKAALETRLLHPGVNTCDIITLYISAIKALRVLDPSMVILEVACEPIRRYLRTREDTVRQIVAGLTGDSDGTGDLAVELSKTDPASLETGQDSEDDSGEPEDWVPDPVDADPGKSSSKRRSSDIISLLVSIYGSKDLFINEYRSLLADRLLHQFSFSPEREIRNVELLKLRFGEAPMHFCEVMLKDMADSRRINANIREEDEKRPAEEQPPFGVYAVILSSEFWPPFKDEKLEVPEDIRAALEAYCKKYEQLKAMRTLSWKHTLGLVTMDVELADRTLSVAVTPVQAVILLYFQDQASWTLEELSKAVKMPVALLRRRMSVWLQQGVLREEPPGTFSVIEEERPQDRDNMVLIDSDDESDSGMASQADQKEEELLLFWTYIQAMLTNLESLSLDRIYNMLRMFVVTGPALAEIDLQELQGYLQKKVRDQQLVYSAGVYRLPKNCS

SMILES: O=C(O)c1ccc(-c2ccc(/C=C3\SC(=S)N(C4CCCCC4)C3=O)o2)cc1
- IC50: 400 nM

— patent US20060276520A1 (priority 2002, published 2006)
